Measurements published in ChEMBL document CHEMBL1135454, “SAR and X-ray. A new approach combining fragment-based screening and rational drug design: application to the discovery of nanomolar inhibitors of Src SH2” (J Med Chem, 2002).

Amino acid sequences for entries named in this document (tags omitted). A change or cut given only in a name is not applied to a line headed by its entry.
UniProt P12931: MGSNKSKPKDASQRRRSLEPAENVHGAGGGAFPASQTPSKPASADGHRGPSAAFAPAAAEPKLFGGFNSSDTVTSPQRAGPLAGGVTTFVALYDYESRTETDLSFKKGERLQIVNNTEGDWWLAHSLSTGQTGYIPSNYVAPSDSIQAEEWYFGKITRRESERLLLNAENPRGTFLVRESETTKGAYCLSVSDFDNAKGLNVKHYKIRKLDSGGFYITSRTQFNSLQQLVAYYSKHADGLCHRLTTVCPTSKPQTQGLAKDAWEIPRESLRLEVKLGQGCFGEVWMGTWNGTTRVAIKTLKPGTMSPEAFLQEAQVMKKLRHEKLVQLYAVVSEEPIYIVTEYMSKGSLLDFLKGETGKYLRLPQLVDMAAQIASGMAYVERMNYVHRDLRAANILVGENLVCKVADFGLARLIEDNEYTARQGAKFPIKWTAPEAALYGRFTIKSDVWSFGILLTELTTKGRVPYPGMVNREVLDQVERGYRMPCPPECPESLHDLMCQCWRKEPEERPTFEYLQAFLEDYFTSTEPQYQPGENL

Target: Proto-oncogene tyrosine-protein kinase Src (Homo sapiens, UniProt P12931)
Assay: Binding affinity for Src protein tyrosine kinase SH2 domain using surface plasmon resonance (SPR) assay

CC[C@H](C)[C@H](NC(=O)[C@H](CCC(=O)O)NC(=O)[C@H](CCC(=O)O)NC(=O)[C@H](Cc1ccc(OP(=O)(O)O)cc1)NC(C)=O)C(=O)O
IC50: 9 nM
